The conditions of this data set: rat; for Pre-frontal cortex: thalmus: ratio of regional uptake.

Where two headings read alike, the source gives them in different places.

With “Ortho-[^18F]Flumazenil [ortho-[^18F]-flumazenil]”, the “Radioactivity in the pre-frontal cortex (region with the highest levels)” value (10 minutes pi) is 1.39±0.06 % id. For the same substance, the “Pre-frontal cortex: thalmus” value reads like this: (0.5 min post-injection) 1.11; (2 min post-injection) 1.37; (10 min post-injection) 1.50; (30 min post-injection) 2.28; (60 min post-injection) 3.96.

Values taken from patent US8946410B2, “Automated radiosynthesis” (GE Healthcare Limited, priority 2009, dated 2015).
